Assay outcomes (PubChem)
PglD inh: C. jejuni PglD acetyltransferase inhibitors, primary screen, biochemical, DTNB colorimetric, single point. UDP-N-acetylbacillosamine N-acetyltransferase PglD (Campylobacter jejuni). purified PglD enzyme, DTNB colorimetric CoA detection. 360,000 tested, 0.098% active. inhibition, % at 12.5 µM. AID 602405, 2012; in the data active = inhibition above about 16%, passing the limit was not always enough
ERp5 inh: inhibitors of ERp5-driven insulin aggregation, primary screen, biochemical, turbidity, absorbance 650 nm, single point | 350,000 tested, 0.05% active | AID 651711, 2012 | Protein disulfide-isomerase A6 (Homo sapiens), Q15084 | 90 min | inhibition, % at 9.99 µM;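 active = mean replicate inhibition above about 25%, with every replicate also reaching it, limit read from the data, passing the limit was not always enough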
PDI inh: inhibitors of human PDI, primary screen, biochemical, turbidity, single point, plate reader; Protein disulfide-isomerase (Homo sapiens), P07237; PDI insulin aggregation turbidity, A650, 90 min; 350,000 tested, 0.052% active; inhibition, % at 10 µM;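 active = mean inhibition across replicates of 30% or more, whatever share of single replicates reach that level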
FGF22 binding: binders of human FGF22 protein, primary screen, FGF22 synaptogenesis inhibitor project, biophysical, thermal shift, single point; recombinant FGF22 thermal shift, SYPRO orange fluorescence; percent of sucrose octasulfate shift, DMSO zero; 340,000 tested, 1.5% active; activity (Tm shift, normalised), % at 9.99 µM;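 active = mean Tm shift, scaled 0 neutral to 100 positive control, at about 1.3% or above, every replicate too, limit read from the data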
ARNT-TACC3 inh: disruptors of ARNT/TACC3 protein interaction, primary screen, biochemical, AlphaScreen, single concentration; AID 623870, 2012; 390,000 tested, 0.66% active; AlphaScreen His-ARNT PAS-B/GST-TACC3 binding, luminescence; TACC3 fragment carries E629A point mutation; Transforming acidic coiled-coil-containing protein 3 (Homo sapiens), Q9Y6A5; inhibition, % at 9.99 µM;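 active = mean inhibition of replicates at least 50% and at least half of replicates each reaching 50%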;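 also: 0% = complete ARNT plus TACC3 wells and 100% = ARNT alone without TACC3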
Yeast UUG start: alters start codon recognition fidelity in yeast | S. cerevisiae UUG-firefly luciferase reporter, luminescence/redox ratio | activity score, % at 18.7 µM | hit rate 0.13% among 350,000 | AID 602363;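 active means replicate mean at a twofold rise or more, about +100% in these data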;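 further: firefly luciferase made from a UUG start codon reports start codon fidelity; reporter light over untreated wells divided by growth signal over untreated wells; some hits fall short of that in this replicate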
* hit, by the source's call; . = not tested or not shown. Sampled rows, rich in hits. Any-hit rate of the full collection: about 1.9%.

Protein sequences, listed by entry. Tags and fused reporters are not part of them.
Protein disulfide-isomerase A6 (Homo sapiens), Q15084, UniProt Q15084, whole entry, looked up: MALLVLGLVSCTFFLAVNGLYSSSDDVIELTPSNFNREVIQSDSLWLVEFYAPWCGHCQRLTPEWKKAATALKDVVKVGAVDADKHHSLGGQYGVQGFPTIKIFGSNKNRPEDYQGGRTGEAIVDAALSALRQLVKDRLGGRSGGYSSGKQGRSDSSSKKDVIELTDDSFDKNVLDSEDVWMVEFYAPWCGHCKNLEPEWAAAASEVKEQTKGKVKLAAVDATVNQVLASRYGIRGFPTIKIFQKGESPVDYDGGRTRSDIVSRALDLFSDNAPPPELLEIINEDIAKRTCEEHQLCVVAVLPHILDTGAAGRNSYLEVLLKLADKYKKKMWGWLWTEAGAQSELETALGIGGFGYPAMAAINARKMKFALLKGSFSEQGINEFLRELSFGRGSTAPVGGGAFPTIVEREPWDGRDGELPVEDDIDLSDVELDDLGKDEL

The opening two compounds, ahead of the listing:
SMILES	PglD inh	ERp5 inh	PDI inh	FGF22 binding	ARNT-TACC3 inh	Yeast UUG start
C[C@]12CC[C@@H]3c4ccc(O)cc4CC[C@H]3[C@@H]1CC[C@@H]2OC(=O)CCC(=O)O	1	-1	-10	0	-1	-20
O=C(c1ccco1)[C@@H]1[C@@H]2C(=O)N(c3ccc(Br)cc3)C(=O)[C@@H]2C2c3ccccc3C=CN21 (stereo not given in full)	-1	.	-12	.	15	-5

All compounds of this part, repeating the preview:
SMILES	PglD inh	ERp5 inh	PDI inh	FGF22 binding	ARNT-TACC3 inh	Yeast UUG start
C[C@]12CC[C@@H]3c4ccc(O)cc4CC[C@H]3[C@@H]1CC[C@@H]2OC(=O)CCC(=O)O	1	-1	-10	0	-1	-20
O=C(c1ccco1)[C@@H]1[C@@H]2C(=O)N(c3ccc(Br)cc3)C(=O)[C@@H]2C2c3ccccc3C=CN21 (stereo not given in full)	-1	.	-12	.	15	-5
CC(=O)[C@H]1[C@@H]2C(=O)N(c3cccc(Cl)c3)C(=O)[C@@H]2[C@H]2c3ccccc3C=CN21	2	.	1	.	24*	-25
CNC(=S)NCC(O)c1ccc([N+](=O)[O-])cc1 (stereo not given)	.	-4	5	44*	-6	.
O=C(CCc1nnc(CCCc2ccccc2)o1)NCCN1CCOC1=O	.	-1	-6	43*	.	.
CC(C)c1cn(CC[C@@H]2CC[C@@H](NC(=O)Nc3cc(Cl)cc(Cl)c3)[C@H](CO)O2)nn1	4	-8	.	1	-11	-18
COCC#Cc1ccc2c(c1)O[C@H](CN(C)C)[C@@H](C)CN([C@H](C)CO)S2(=O)=O	-1	-1	.	0	1	-5
COc1ccc(CN(C)CC(=O)Nc2ccccc2C(F)(F)F)c(OC)c1	1	.	4	.	-14	-22
COc1ccc(CN(C)CC(=O)Nc2c(C)cccc2C)c(OC)c1	.	5	6	43*	15	.
CCc1cccc(C)c1NC(=O)CN(C)Cc1cccc(F)c1	-1	0	-9	0	-1	-8

A second format for some results above.
Compound | PglD inh | ERp5 inh | PDI inh | FGF22 binding | ARNT-TACC3 inh | Yeast UUG start
CCc1cccc(C)c1NC(=O)CN(C)Cc1cccc(F)c1 | -1 | 0 | -9 | 0 | -1 | -8
CC(=O)[C@H]1[C@@H]2C(=O)N(c3cccc(Cl)c3)C(=O)[C@@H]2[C@H]2c3ccccc3C=CN21 | 2 | . | 1 | . | 24* | -25
COc1ccc(CN(C)CC(=O)Nc2ccccc2C(F)(F)F)c(OC)c1 | 1 | . | 4 | . | -14 | -22

Following part.
SMILES	PglD inh	ERp5 inh	PDI inh	FGF22 binding	ARNT-TACC3 inh	Yeast UUG start
Cc1cccc(C(C)C)c1NC(=O)CN(C)Cc1cccc(F)c1	.	-4	4	43*	-4	.
COc1ccc(N(CC(=O)Nc2c(C)cccc2C)S(=O)(=O)c2ccccc2[N+](=O)[O-])c(OC)c1	-3	-2	3	43*	-5	-3
O=C(C1CCC1)N1CC2(C1)[C@H](c1ccccc1)[C@@H](CO)N2Cc1cccnc1	.	-6	.	1	.	.
COC1=CC(=O)c2c(ccc3ncnc(N)c23)C1=O	.	4	25	0	31*	.
N#C[C@H]1[C@@H](c2ccc(C#CCC3CCCC3)cc2)[C@@H](CO)N1C(=O)c1ccccn1	1	2	.	-1	3	28
CCOC(=O)c1c(C)[nH]c(C)c1C(=O)COC(=O)c1cc(OC)cc(OC)c1	.	2	6	59*	-3	.
c1ccc(-c2n[nH]c(-c3ccccn3)n2)cc1	.	.	4	.	57*	-6
c1ccc(-c2nc(-c3ccccn3)no2)cc1	-5	.	1	.	4	-62
CC1=C(C#N)C(=O)NC(=O)/C1=C\c1ccc(-c2cc(C)c(C)cc2[N+](=O)[O-])o1	-4	5	-1	1.6*	11	8
Cc1ccc(-c2ccc(/C=C3/NC(=O)NC3=O)o2)cc1[N+](=O)[O-]	2	2	-7	0	6	-10
CCOC(=O)Cc1ccc(NC(=O)c2cccc([N+](=O)[O-])c2)cc1	-3	-1	-2	0	-13	-14
CCOC(=O)/C(C)=N/NC(=O)c1cccc([N+](=O)[O-])c1	.	3	7	44*	3	.
O=C(c1ccccc1)N1CC2(C1)[C@H](c1ccccc1)[C@@H](CO)N2C(=O)CC1CC1	.	-2	.	0	.	.
O=C(O)c1cc2nc3c(c(C(F)(F)F)n2n1)CCCC3	-2	4	-1	43*	-3	-4
C[C@H]1CN([C@@H](C)CO)S(=O)(=O)c2ccc(-c3ccc(C#N)cc3)cc2O[C@H]1CN(C)Cc1ccccn1	1	4	.	0	-4	-4
C[C@H]1CN([C@@H](C)CO)C(=O)Cc2cc(NC(=O)C3CCCCC3)ccc2O[C@H]1CN(C)CC1CC1	-3	-5	.	0	2	2
Cc1noc(C)c1NC(=O)Nc1ccc2c(c1)C(=O)N([C@H](C)CO)C[C@H](C)[C@H](CN(C)C(=O)c1ccccc1)OCCCC[C@@H](C)O2	3	-2	.	-1	-9	8
CN(c1nc2nonc2nc1NC1CC1)C1CCOC1 (stereo not given)	4	3	4	43*	-3	-7
CC(c1nccs1)N(C)c1nc2nonc2nc1NC1CC1 (stereo not given)	4	-5	4	1	-2	7
COCC(=O)N1CC2(CN(C(C)=O)C2)c2c([nH]c3cc(OC)ccc23)[C@@H]1CO	.	.	.	0	.	.
COc1ccc(CCN(Cc2nc3ccccc3c(=O)[nH]2)C(=O)C2CC2)cc1	0	-1	1	43*	14	11
O=C(C1CC1)N(CCc1ccccc1)Cc1nc2ccccc2c(=O)[nH]1	3	.	-9	.	-6	3
COC(=O)c1cn(NC(=O)Cn2nc([N+](=O)[O-])c(Br)c2C)c(=O)c2ccccc12	.	-1	0	43*	-3	.
Cc1nc2ccccc2c(=O)n1/N=C/c1cc(Br)ccc1O	2	5	2	0	59*	-15
CCOc1ccc(NC(=O)c2ccc(NC(=S)NC3CC3)cc2)cc1	3	5	-12	1.9*	-7	-25
CCOc1ccc(NC(=O)c2ccc(NC(=S)NC3CCCCC3)cc2)cc1	-1	-3	-6	0	24	-14
Cc1noc(C)c1S(=O)(=O)Nc1ccc2c(c1)C(=O)N([C@H](C)CO)C[C@@H](C)[C@H](CN(C)C(=O)CCCN(C)C)OCCCC[C@@H](C)O2	0	.	.	0	-12	1
O=C(CCCn1c(=S)[nH]c2cc3c(cc2c1=O)OCO3)NCCc1ccc(Cl)cc1	-3	1	0	43*	.	-14
Cc1cc(NC(=S)N(Cc2cccc(Br)c2)CC2CCC(C(=O)O)CC2)ccc1Cl (stereo not given)	.	-2	0	0	-6	.
Cc1ccc(NC(=S)N(Cc2cccc(Br)c2)CC2CCC(C(=O)O)CC2)cc1 (stereo not given)	-1	-3	4	8.2*	-9	-29
Cc1cc(NC(=O)CSc2nnc(C)o2)no1	0	5	1	0	47*	-18
CCC(c1nnc(SCC(=O)Nc2cc(C)on2)o1)N(C)C (stereo not given)	3	3	2	0	76*	-25
CCC(c1nnc(SCC(=O)NC23CC4CC(CC(C4)C2)C3)o1)N(C)C (stereo not given)	-4	.	0	.	-2	0
